pEC50: −log10 of the molar value.
Molecular target: T1, AhR receptor (Homo sapiens, UniProt P35869)
T1 construct: cells of reporter gene expressing natural (Human Hepatoma Huh-7) AhR receptor; endogenous in cells; host or cells: Human hepatoma Huh-7 reporter cells (firefly luciferase under a receptor-specific response element)
T1 sequence (P35869 11-848): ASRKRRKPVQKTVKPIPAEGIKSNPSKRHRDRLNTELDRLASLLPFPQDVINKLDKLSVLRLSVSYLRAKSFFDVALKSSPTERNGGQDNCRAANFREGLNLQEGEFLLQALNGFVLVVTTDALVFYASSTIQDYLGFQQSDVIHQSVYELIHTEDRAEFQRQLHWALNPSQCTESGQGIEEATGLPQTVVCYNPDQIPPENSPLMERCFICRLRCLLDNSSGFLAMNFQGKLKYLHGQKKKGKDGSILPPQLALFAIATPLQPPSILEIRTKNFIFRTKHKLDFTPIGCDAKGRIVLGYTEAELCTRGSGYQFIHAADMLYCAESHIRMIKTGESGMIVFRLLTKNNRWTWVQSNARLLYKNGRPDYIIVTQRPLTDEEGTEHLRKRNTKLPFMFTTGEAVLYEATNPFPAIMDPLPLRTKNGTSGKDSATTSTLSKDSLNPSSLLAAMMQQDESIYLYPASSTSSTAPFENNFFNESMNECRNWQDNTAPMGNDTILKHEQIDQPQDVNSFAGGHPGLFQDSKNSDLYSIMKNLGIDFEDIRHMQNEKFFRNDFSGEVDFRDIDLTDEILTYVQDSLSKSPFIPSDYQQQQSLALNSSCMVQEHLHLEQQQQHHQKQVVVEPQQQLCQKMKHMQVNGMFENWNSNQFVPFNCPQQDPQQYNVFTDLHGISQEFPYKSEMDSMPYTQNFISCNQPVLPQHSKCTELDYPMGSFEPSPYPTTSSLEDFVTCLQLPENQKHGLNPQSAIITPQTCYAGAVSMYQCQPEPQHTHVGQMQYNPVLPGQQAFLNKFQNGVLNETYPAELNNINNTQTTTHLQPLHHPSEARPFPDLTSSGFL
Assay: AhR agonist assay (luciferase reporter gene cells)
Type: cell-based
Settings: reporter cells expressing natural (Human Hepatoma Huh-7) AhR receptor, firefly luciferase, 24 hours at 37° C., 0.1% DMSO
Procedure: Experimental material (plasmids): cells of reporter gene expressing natural (Human Hepatoma Huh-7) AhR receptor, in which reporter vector comprises a functional firefly luciferase gene connecting to an upstream receptor specific genetic response element (GRE).
AhR agonist test includes following three steps:
1, Implanting into cells: a suspension of reporter cell of AhR receptor was prepared in cell recovery medium (CRM; containing 10% charcoal-treated FBS). Then the suspension (100 μL) was assigned to wells in a white culture plate with 96 wells.
2, Before the experiment was about to begin, Master Stocks was diluted to be a processing medium of “concentration of 2 X” by use of appropriate compound screening assay medium (CSM: containing 10% charcoal-treated FBS). […]
3, Fluorescence detection and analysis: after incubation, the processing medium was discarded and luciferase detection reagent was added 100 μL/well. Ave RLU (mean relative fluorescence intensity) of each well and coefficient of variation for each set of experiments were detected. Ratio of Ave RLU^Test Cmpd of treatment groups with test compound of different concentrations to Ave RLU^Vehicle of blank control group can determine activity quantitatively of AhR receptor under influence of test compound of different concentrations and activating multiples as well as EC50. […]

Question: With COC(=O)c1cnc(C(=O)c2c[nH]c3ccccc23)s1 [Compound 11] as the compound, how does the pEC50 read?
Answer: Its pEC50 is 4.00 to 5.00.

Reference: US11547698B2, “Aryl hydrocarbon receptor modulators” (ARIAGEN, INC., priority 2016, dated 2023)
